Source: ChEMBL document CHEMBL5500414 (J Med Chem, 2024)

Columns and labels:
[1] = target: T1, Bcl-2-related protein A1 (Homo sapiens) (UniProt Q16548); experiment: Inhibition of BFL-1 in BFL-1 overexpressing isogenic human MV4-11 cells assessed as late apoptotic cells at 20 uM measured after 48 hrs in presence of doxycycline by flow cytometry based Annexin V-PE/7-ADD Apoptosis detection kit; assay type: cell-based; parameters: scale not given: the % may be the effect or the level left
T1 sequence (whole entry): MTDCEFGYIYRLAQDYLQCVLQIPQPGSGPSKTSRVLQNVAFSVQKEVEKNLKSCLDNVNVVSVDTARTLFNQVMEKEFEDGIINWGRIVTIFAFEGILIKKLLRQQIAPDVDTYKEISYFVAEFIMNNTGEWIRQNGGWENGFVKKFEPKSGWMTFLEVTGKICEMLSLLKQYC

[2] = target: T1, Bcl-2-related protein A1 (Homo sapiens); experiment: Inhibition of BFL-1 in BFL-1 overexpressing isogenic human MOLM-13 cells assessed as enhancement of 3 uM venetoclax-induced late apoptotic cells at 15 uM measured after 24 hrs in presence of doxycycline by flow cytometry based Annexin V-PE/7-ADD Apoptosis detection kit; assay type: cell-based; parameters: scale not given: the % may be the effect or the level left
[3] = target: T1, Bcl-2-related protein A1 (Homo sapiens); experiment: Inhibition of BFL-1 in BFL-1 overexpressing isogenic human MOLM-13 cells assessed as late apoptotic cells at 10 uM measured after 24 hrs in presence of doxycycline by flow cytometry based Annexin V-PE/7-ADD Apoptosis detection kit; assay type: cell-based; parameters: scale not given: the % may be the effect or the level left
[4] = target: T1, Bcl-2-related protein A1 (Homo sapiens); experiment: Inhibition of BFL-1 in BFL-1 overexpressing isogenic human MV4-11 cells assessed as enhancement of 1 uM venetoclax-induced early apoptotic cells at 20 uM measured after 48 hrs in presence of doxycycline by flow cytometry based Annexin V-PE/7-ADD Apoptosis detection kit; assay type: cell-based; parameters: scale not given: the % may be the effect or the level left
[5] = target: T1, Bcl-2-related protein A1 (Homo sapiens); experiment: Inhibition of BFL-1 in BFL-1 overexpressing isogenic human MOLM-13 cells assessed as enhancement of 3 uM venetoclax-induced late apoptotic cells at 10 uM measured after 24 hrs in presence of doxycycline by flow cytometry based Annexin V-PE/7-ADD Apoptosis detection kit; assay type: cell-based; parameters: scale not given: the % may be the effect or the level left
[6] = target: T1, Bcl-2-related protein A1 (Homo sapiens); experiment: Inhibition of BFL-1 in BFL-1 overexpressing isogenic human MOLM-13 cells assessed as late apoptotic cells at 20 uM measured after 24 hrs in presence of doxycycline by flow cytometry based Annexin V-PE/7-ADD Apoptosis detection kit; assay type: cell-based; parameters: scale not given: the % may be the effect or the level left
[7] = target: T1, Bcl-2-related protein A1 (Homo sapiens); experiment: Inhibition of BFL-1 in BFL-1 overexpressing isogenic human MV4-11 cells assessed as enhancement of 3 uM venetoclax-induced early apoptotic cells at 20 uM measured after 48 hrs in presence of doxycycline by flow cytometry based Annexin V-PE/7-ADD Apoptosis detection kit; assay type: cell-based; parameters: scale not given: the % may be the effect or the level left
[8] = target: T1, Bcl-2-related protein A1 (Homo sapiens); experiment: Inhibition of BFL-1 in BFL-1 overexpressing isogenic human MV4-11 cells assessed as enhancement of 1 uM venetoclax-induced late apoptotic cells at 15 uM measured after 48 hrs in presence of doxycycline by flow cytometry based Annexin V-PE/7-ADD Apoptosis detection kit; assay type: cell-based; parameters: scale not given: the % may be the effect or the level left
Pfeiffer [9] = experiment: Inhibition of BCL-2/BIM interaction in human Pfeiffer cells assessed as decrease in BIM-associated BFL-1 level at 20 uM measured after 5 hrs by Co-IP assay; assay type: cell-based
[10] = target: T1, Bcl-2-related protein A1 (Homo sapiens); experiment: Inhibition of BFL-1 in BFL-1 overexpressing isogenic human MV4-11 cells assessed as enhancement of 3 uM venetoclax-induced early apoptotic cells at 10 uM measured after 48 hrs in presence of doxycycline by flow cytometry based Annexin V-PE/7-ADD Apoptosis detection kit; assay type: cell-based; parameters: scale not given: the % may be the effect or the level left
MV4-11 = experiment: Antiproliferative activity against BFL-1 overexpressing isogenic human MV4-11 cells assessed as inhibitory rate in presence of doxycycline; assay type: functional, cell-based
[11] = target: T1, Bcl-2-related protein A1 (Homo sapiens); experiment: Binding affinity to BFL-1 in BFL-1 overexpressing isogenic human MOLM-13 cells assessed as covalent modification by measuring irreversible alkylation of cellular FLAG-tagged BFL-1 measured after 24 hrs incubation by SDS-PAGE based immunoprecipitation assay; assay type: cell-based
[12] = target: T1, Bcl-2-related protein A1 (Homo sapiens); experiment: Inhibition of BFL-1 in BFL-1 overexpressing isogenic human MOLM-13 cells assessed as early apoptotic cells at 10 uM measured after 24 hrs in presence of doxycycline by flow cytometry based Annexin V-PE/7-ADD Apoptosis detection kit; assay type: cell-based; parameters: scale not given: the % may be the effect or the level left
[13] = target: T1, Bcl-2-related protein A1 (Homo sapiens); experiment: Inhibition of BFL-1 in BFL-1 overexpressing isogenic human MOLM-13 cells assessed as enhancement of 3 uM venetoclax-induced early apoptotic cells at 20 uM measured after 24 hrs in presence of doxycycline by flow cytometry based Annexin V-PE/7-ADD Apoptosis detection kit; assay type: cell-based; parameters: scale not given: the % may be the effect or the level left
[14] = target: T1, Bcl-2-related protein A1 (Homo sapiens); experiment: Inhibition of BFL-1 in BFL-1 overexpressing isogenic human MV4-11 cells assessed as enhancement of 1 uM venetoclax-induced late apoptotic cells at 20 uM measured after 48 hrs in presence of doxycycline by flow cytometry based Annexin V-PE/7-ADD Apoptosis detection kit; assay type: cell-based; parameters: scale not given: the % may be the effect or the level left
[15] = target: T1, Bcl-2-related protein A1 (Homo sapiens); experiment: Inhibition of BFL-1 in BFL-1 overexpressing isogenic human MOLM-13 cells assessed as late apoptotic cells at 15 uM measured after 24 hrs in presence of doxycycline by flow cytometry based Annexin V-PE/7-ADD Apoptosis detection kit; assay type: cell-based; parameters: scale not given: the % may be the effect or the level left
[16] = target: T1, Bcl-2-related protein A1 (Homo sapiens); experiment: Inhibition of BFL-1 in BFL-1 overexpressing isogenic human MV4-11 cells assessed as enhancement of 1 uM venetoclax-induced late apoptotic cells at 10 uM measured after 48 hrs in presence of doxycycline by flow cytometry based Annexin V-PE/7-ADD Apoptosis detection kit; assay type: cell-based; parameters: scale not given: the % may be the effect or the level left
[17] = target: T1, Bcl-2-related protein A1 (Homo sapiens); experiment: Inhibition of BFL-1 in BFL-1 overexpressing isogenic human MOLM-13 cells assessed as enhancement of 1 uM venetoclax-induced early apoptotic cells at 20 uM measured after 24 hrs in presence of doxycycline by flow cytometry based Annexin V-PE/7-ADD Apoptosis detection kit; assay type: cell-based; parameters: scale not given: the % may be the effect or the level left
[18] = target: T1, Bcl-2-related protein A1 (Homo sapiens); experiment: Inhibition of BFL-1 in BFL-1 overexpressing isogenic human MV4-11 cells assessed as enhancement of 1 uM venetoclax-induced early apoptotic cells at 15 uM measured after 48 hrs in presence of doxycycline by flow cytometry based Annexin V-PE/7-ADD Apoptosis detection kit; assay type: cell-based; parameters: scale not given: the % may be the effect or the level left
[19] = target: T1, Bcl-2-related protein A1 (Homo sapiens); experiment: Inhibition of BFL-1 in BFL-1 overexpressing isogenic human MOLM-13 cells assessed as enhancement of 1 uM venetoclax-induced late apoptotic cells at 10 uM measured after 24 hrs in presence of doxycycline by flow cytometry based Annexin V-PE/7-ADD Apoptosis detection kit; assay type: cell-based; parameters: scale not given: the % may be the effect or the level left
Pfeiffer [20] = experiment: Inhibition of BFL-1/BIM interaction in human Pfeiffer cells assessed as decrease in BIM-associated BFL-1 level at 20 uM measured after 5 hrs by Co-IP assay; assay type: cell-based
[21] = target: T1, Bcl-2-related protein A1 (Homo sapiens); experiment: Inhibition of BFL-1 in BFL-1 overexpressing isogenic human MOLM-13 cells assessed as enhancement of 3 uM venetoclax-induced late apoptotic cells at 20 uM measured after 24 hrs in presence of doxycycline by flow cytometry based Annexin V-PE/7-ADD Apoptosis detection kit; assay type: cell-based; parameters: scale not given: the % may be the effect or the level left
[22] = target: T1, Bcl-2-related protein A1 (Homo sapiens); experiment: Inhibition of BFL-1 in BFL-1 overexpressing isogenic human MV4-11 cells assessed as enhancement of 1 uM venetoclax-induced early apoptotic cells at 10 uM measured after 48 hrs in presence of doxycycline by flow cytometry based Annexin V-PE/7-ADD Apoptosis detection kit; assay type: cell-based; parameters: scale not given: the % may be the effect or the level left

- Activity [1]: 20.4%
- Activity [2]: 10.7%
- Activity [3]: 1.9%
- Activity [4]: 16%
- Activity [5]: 8.04%
- Activity [6]: 5.63%
- Activity [7]: 12.4%
- Activity [8]: 54.1%
- Activity [10]: 6.27%
- Activity [11]: 50%
- Activity [12]: 7.84%
- Activity [13]: 78.6%
- Activity [14]: 77.3%
- Activity [15]: 4.16%
- Activity [16]: 35.6%
- Activity [17]: 78.9%
- Activity [18]: 9.28%
- Activity [19]: 6.25%
- Activity [21]: 11%
- Activity [22]: 6.03%
Compound: C=CC(=O)Nc1ccc2c(c1)CCC(CN1CCN(c3ccc(C(=O)O)c(Oc4cnc5[nH]ccc5c4)c3)CC1)=C2c1ccc(Cl)cc1CC
- Activity (Pfeiffer [9]): inactive
- Activity (MV4-11): Dose-Dependent Effect
- Activity (Pfeiffer [20]): inactive

Activity calls are given as the source filed them. The calls are words filed in the database; no cut-off is given here.
